# Legend:
# [1] = Plasma protein binding (modified ultrafiltration), mouse; conditions: Table 3
# [2] = Plasma protein binding (modified ultrafiltration), human; conditions: Table 3
substance,measurement,setting,value
Ac-Phe(2-CI)-[ProM-2][ProM-1]-NH2 [Compound 4C],"Plasma protein binding, fb (bound fraction)",[1],5.5
same,"Plasma protein binding, fb (bound fraction)",[2],4.5
